Values of other authors, collected in patent US6632979B2, “Rodent HER2 tumor model” (Genentech, Inc., priority 2000, dated 2003).

Tested on: breast cancer patients whose tumors overexpress HER2
Conditions: cited from earlier work

## HERCEPTIN®: humanized version of murine anti-HER2 antibody 4D5
Cobleigh et al. 1999
  complete responses, patients: 4%
  median duration of responses: 9.1 months
  partial responses, patients: 11%
ErbB2-overexpressing breast cancers, extensive prior anti-cancer therapy
  patients that fail to respond or respond only poorly: approximately 85%
Clinical trial preceding market approval
  median time to disease progression in all treated patients: 3.1 months
